{"source": "ChEMBL document CHEMBL2380260", "about": "“Structure-activity relationship of N,N'-disubstituted pyrimidinetriones as Ca(V)1.3 calcium channel-selective antagonists for Parkinson's disease” (J Med Chem, 2013)"}
{"test": "Selectivity ratio of IC50 for rabbit CaV1.2alpha1C to IC50 for rat CaV1.3alpha1D", "method_in_brief": "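Selectivity is defined as […] the ratio of the CaV1.2 IC50 to the CaV1.3 IC50. Both IC50s come from the Fluo-8 FLIPR calcium influx assay in stably transfected HEK293 cells, each run in triplicate and fitted to a one-site sigmoidal model.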"}
{"smiles": "O=C1CC(=O)N(C2Cc3ccccc3C2)C(=O)N1C1CCCC1", "Ratio IC50": 1.1}
{"smiles": "CC(=O)OCC1(N2C(=O)CC(=O)N(CCc3cccc(Cl)c3)C2=O)CCCC1", "Ratio IC50": 0.7}
{"smiles": "O=C1CC(=O)N(C2CCCC2)C(=O)N1Cc1cccc(Cl)c1", "Ratio IC50": 1.1}
{"smiles": "CO[C@H]1CCC[C@@H]1N1C(=O)CC(=O)N(CCc2cccc(Cl)c2)C1=O", "Ratio IC50": 1.1}
{"smiles": "CC(C)OC(=O)[C@H]1CC[C@@H](N2C(=O)CC(=O)N(CCc3cccc(Cl)c3)C2=O)C1", "Ratio IC50": 0.8}
{"smiles": "COC(=O)[C@@H](Cc1ccccc1)N1C(=O)CC(=O)N(C2CCCC2)C1=O", "Ratio IC50": 0.8}
{"smiles": "CC(C)C(=O)O[C@H]1CCC[C@@H]1N1C(=O)CC(=O)N(CCc2cccc(Cl)c2)C1=O", "Ratio IC50": 0.9}
{"smiles": "C[C@@H]1CCC[C@@H]1N1C(=O)CC(=O)N(CCc2ccc(Cl)cc2)C1=O", "Ratio IC50": 1.7}
{"smiles": "O=C1CC(=O)N(C2CCCC2)C(=O)N1CCC(c1ccccc1)c1ccccc1", "Ratio IC50": 1.2}
{"smiles": "CCC1CCC(N2C(=O)CC(=O)N(CCc3cccc(Cl)c3)C2=O)C1", "note": "(stereo not drawn)", "Ratio IC50": 2}
{"smiles": "CC1CCC(N2C(=O)CC(=O)N(CCc3cccc(Cl)c3)C2=O)CC1", "note": "(stereo not drawn)", "Ratio IC50": 1.3}
{"smiles": "CCC1CCC(N2C(=O)CC(=O)N(CCc3ccc(Cl)cc3)C2=O)C1", "note": "(racemic)", "Ratio IC50": 4.4}
{"smiles": "O=C(OCc1ccccc1)N1CC[C@H](N2C(=O)CC(=O)N(CCc3cccc(Cl)c3)C2=O)C1", "Ratio IC50": 0.7}
{"smiles": "CC(Cc1ccc(Cl)cc1)N1C(=O)CC(=O)N(C2CC3CCC2C3)C1=O", "note": "(racemic)", "Ratio IC50": 1.1}
{"smiles": "C[C@H]1CCCC[C@H]1N1C(=O)CC(=O)N(CCc2ccc(Cl)cc2)C1=O", "Ratio IC50": 1.4}
{"smiles": "C[C@H](c1cccc2ccccc12)N1C(=O)CC(=O)N(CCc2cccc(Cl)c2)C1=O", "Ratio IC50": 0.9}
{"smiles": "C[C@H](C1CCCCC1)N1C(=O)CC(=O)N(CCc2cccc(Cl)c2)C1=O", "Ratio IC50": "> 10"}
{"smiles": "COC(=O)C(Cc1ccc(Cl)cc1)N1C(=O)CC(=O)N(C2CCCC2)C1=O", "note": "(stereo not drawn)", "Ratio IC50": 1.8}
{"smiles": "CCC(CC)N1C(=O)CC(=O)N(CCc2cccc(Cl)c2)C1=O", "Ratio IC50": 2.2}
{"smiles": "O=C1CC(=O)N(C2CC3CCC2C3)C(=O)N1CCc1cccc(C(F)(F)F)c1", "note": "(racemic)", "Ratio IC50": 40.8}
{"smiles": "CC(C)(CN1C(=O)CC(=O)N(C2CC3CCC2C3)C1=O)c1cccc(Cl)c1", "note": "(mixture of isomers)", "Ratio IC50": 1.2}
{"smiles": "O=C1CC(=O)N(C2CC3CCC2C3)C(=O)N1CCc1cc(C(F)(F)F)cc(C(F)(F)F)c1", "note": "(mixture of isomers)", "Ratio IC50": 2.2}
{"smiles": "O=C1CC(=O)N(C2CCCC2)C(=O)N1CCc1cccc(Cl)c1", "Ratio IC50": "> 100"}
{"smiles": "CC(C)(CN1C(=O)CC(=O)N(C2CCCC2)C1=O)c1cccc(C(F)(F)F)c1", "Ratio IC50": 1.9}
{"smiles": "C[C@H]1CCC[C@@H]1N1C(=O)CC(=O)N(CCc2ccc(Cl)cc2)C1=O", "note": "(racemic)", "Ratio IC50": 3.3}
{"smiles": "C[C@H]1CCC[C@H]1N1C(=O)CC(=O)N(CCc2ccc(Cl)cc2)C1=O", "Ratio IC50": 3.7}
{"smiles": "CC1(C)CCC(N2C(=O)CC(=O)N(CCc3ccc(Cl)cc3)C2=O)C1", "note": "(stereo not drawn)", "Ratio IC50": 6.8}
{"smiles": "CCOC(=O)[C@@H]1CCC[C@@H]1N1C(=O)CC(=O)N(CCc2cccc(Cl)c2)C1=O", "Ratio IC50": 1}
{"smiles": "O=C1CC(=O)N(C2CCCC2)C(=O)N1CCc1ccc(-c2ccccc2)cc1", "Ratio IC50": 1.2}
{"smiles": "C[C@@H](C1CCCCC1)N1C(=O)CC(=O)N(CCc2cccc(Cl)c2)C1=O", "Ratio IC50": "> 29"}
{"smiles": "C[C@@H]1[C@@H](N2C(=O)CC(=O)N(CCc3ccc(Cl)cc3)C2=O)C[C@H]2C[C@@H]1C2(C)C", "Ratio IC50": 1.3}
{"smiles": "CC1CCC(N2C(=O)CC(=O)N(CCc3cccc(Cl)c3)C2=O)C1", "note": "(stereo not drawn)", "Ratio IC50": 10}
{"smiles": "C[C@H](c1cccc2ccccc12)N1C(=O)CC(=O)N(C2CCCC2)C1=O", "Ratio IC50": 1.3}
{"smiles": "CC(C)c1ccc(CCN2C(=O)CC(=O)N(C3CCCC3)C2=O)cc1", "Ratio IC50": 1.5}
{"smiles": "CC1(C)CCC[C@H]1N1C(=O)CC(=O)N(CCc2ccc(Cl)cc2)C1=O", "Ratio IC50": 1}
{"smiles": "CC(CN1C(=O)CC(=O)N(C2CC3CCC2C3)C1=O)c1ccc(Cl)cc1", "note": "(racemic)", "Ratio IC50": 2.4}
{"smiles": "O=C1CC(=O)N([C@@H]2C[C@@H]3CC[C@H]2C3)C(=O)N1CCc1cccc(C(F)(F)F)c1", "Ratio IC50": 36}
{"smiles": "CC(C)C(=O)OCC1(N2C(=O)CC(=O)N(CCc3cccc(Cl)c3)C2=O)CCCC1", "Ratio IC50": 0.9}
{"smiles": "CC1(C)CCC[C@H]1N1C(=O)CC(=O)N(CCc2cccc(C(F)(F)F)c2)C1=O", "Ratio IC50": 1.2}
{"smiles": "CC1(C)CCC(N2C(=O)CC(=O)N(CCc3cccc(Cl)c3)C2=O)C1", "note": "(stereo not drawn)", "Ratio IC50": 7.7}
{"smiles": "O=C1CC(=O)N(C2CC3CCC2C3)C(=O)N1CCc1cc(Cl)cc(Cl)c1", "note": "(racemic)", "Ratio IC50": 1.7}
{"smiles": "CC1CCC(N2C(=O)CC(=O)N(CCc3ccc(Cl)cc3)C2=O)C1", "note": "(stereo not drawn)", "Ratio IC50": 2.1}
{"smiles": "CC1CCC(N2C(=O)CC(=O)N(CCc3ccc(Cl)cc3)C2=O)CC1", "note": "(stereo not drawn)", "Ratio IC50": 2.7}
{"smiles": "O=C1CC(=O)N(C2CCCc3ccccc32)C(=O)N1C1CCCC1", "note": "(stereo not drawn)", "Ratio IC50": 1}
{"smiles": "COC(=O)C1(N2C(=O)CC(=O)N(CCc3cccc(Cl)c3)C2=O)CCCC1", "Ratio IC50": 1.1}
{"smiles": "O=C1CC(=O)N(C2CCc3ccccc32)C(=O)N1C1CCCC1", "note": "(stereo not drawn)", "Ratio IC50": 1.2}
{"smiles": "CC(CN1C(=O)CC(=O)N(C2CCCC2)C1=O)c1cccc(Cl)c1", "note": "(stereo not drawn)", "Ratio IC50": 5}
{"smiles": "C[C@@H]1[C@@H](C)CC[C@@H]1N1C(=O)CC(=O)N(CCc2cccc(Cl)c2)C1=O", "Ratio IC50": 4.3}
{"smiles": "O=C1CC(=O)N(C2CCCC2)C(=O)N1Cc1ccc(Cl)cc1", "Ratio IC50": 2.9}
{"smiles": "CC1(C)[C@@H]2CC[C@H](CN3C(=O)CC(=O)N(CCc4cccc(Cl)c4)C3=O)[C@H]1C2", "Ratio IC50": 1.2}
{"smiles": "O=C1CC(=O)N(C2CCCC2)C(=O)N1CCc1cc(Cl)cc(Cl)c1", "Ratio IC50": 2.3}
{"smiles": "CC1(C)CCC[C@@H]1N1C(=O)CC(=O)N(CCc2ccc(Cl)cc2)C1=O", "Ratio IC50": 1.4}
{"smiles": "C[C@H]1CCCC[C@H]1N1C(=O)CC(=O)N(CCc2cccc(Cl)c2)C1=O", "Ratio IC50": 1}
